Test results: PubChem BioAssay
The list shows a part of the results, in another mix than the full data. Activity calls are given as the source filed them. Unless noted, no stated cut-off is given here; in the data, active means response below about 74% or above about 130%; inactive means in between.

The chains behind the UniProt entries cited, without tags or fusion partners.
UniProt P09471, whole entry: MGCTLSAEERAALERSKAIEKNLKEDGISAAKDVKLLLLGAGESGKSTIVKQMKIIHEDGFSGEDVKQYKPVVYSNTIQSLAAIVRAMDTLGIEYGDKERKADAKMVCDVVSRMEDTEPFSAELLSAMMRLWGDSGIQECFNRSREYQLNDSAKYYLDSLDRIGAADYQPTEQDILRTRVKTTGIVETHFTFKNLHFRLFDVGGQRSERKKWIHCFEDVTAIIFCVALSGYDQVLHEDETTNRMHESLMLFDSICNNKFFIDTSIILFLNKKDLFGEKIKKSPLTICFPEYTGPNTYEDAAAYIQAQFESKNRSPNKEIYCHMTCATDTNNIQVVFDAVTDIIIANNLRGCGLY
UniProt O15492, whole entry, looked up: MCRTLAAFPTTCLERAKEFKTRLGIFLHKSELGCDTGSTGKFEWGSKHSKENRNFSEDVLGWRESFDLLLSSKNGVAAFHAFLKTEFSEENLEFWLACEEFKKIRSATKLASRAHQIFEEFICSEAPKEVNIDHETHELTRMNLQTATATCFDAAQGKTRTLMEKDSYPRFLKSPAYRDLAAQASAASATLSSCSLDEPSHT
UniProt P49795, whole entry, looked up: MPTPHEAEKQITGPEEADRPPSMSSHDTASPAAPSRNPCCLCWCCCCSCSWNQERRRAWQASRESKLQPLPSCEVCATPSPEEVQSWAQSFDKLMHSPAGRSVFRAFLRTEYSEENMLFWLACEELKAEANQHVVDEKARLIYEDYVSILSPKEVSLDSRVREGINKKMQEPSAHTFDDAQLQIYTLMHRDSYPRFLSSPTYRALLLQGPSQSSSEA

Key:
[1] = interference with biotin-avidin bead interaction – biochemical, flow cytometry, bead-based, counter-screen for RGS protein interaction modulators (AID 1783;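 active means inhibition above 50%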;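 further: median green fluorescence of gated singlet beads compared with DMSO control wells; 0% = DMSO wells and 100% = complete loss of bead fluorescence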); details: streptavidin beads, fluorescein-biotin binding, at 10 µM, stronger effect = higher value
[2] = biological target: Guanine nucleotide-binding protein G(o) subunit alpha (Homo sapiens) (UniProt P09471); test: retest of RGS8-Galphao interaction hits – biochemical, multiplexed bead flow cytometry, single concentration, confirmation (AID 1836; in the data active means binding response below about 72% or above about 130%; inactive means in between;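 further: Galphao activated as GDP AlF4 complex before binding bead RGS8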); details: bead-based flow cytometry RGS8-Galphao binding, fluorescence; at 10 µM; actives lie on both sides
[3] = biological target: Guanine nucleotide-binding protein G(o) subunit alpha (Homo sapiens) (UniProt P09471); test: retest of RGS7-Galphao interaction hits – biochemical, multiplexed bead flow cytometry, single concentration, confirmation (AID 1837; in the data active means response below about 75% or above about 130%; inactive means in between;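 further: fluorescent Galphao activated with GDP and aluminum fluoride binding bead-coupled RGS7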); details: bead-based flow cytometry RGS7-Galphao binding; at 10 µM; actives lie on both sides
[4] = biological target: Regulator of G-protein signaling 16 (Homo sapiens) + Guanine nucleotide-binding protein G(o) subunit alpha (Homo sapiens) (UniProt O15492+P09471); test: RGS16 and Galphao interaction regulators – biochemical, single concentration, multiplexed bead flow cytometry, confirmation (AID 1838); details: bead-based flow cytometry, at 10 µM, actives lie on both sides;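 further: Galphao activated as the GDP aluminium fluoride complex binding bead-coupled RGS16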
[5] = biological target: Guanine nucleotide-binding protein G(o) subunit alpha (Homo sapiens) (UniProt P09471); test: RGS4 and Galphao interaction regulators – biochemical, single concentration, multiplexed bead flow cytometry, confirmation (AID 1840; in the data active means binding response below about 74% or above about 130%; inactive means in between); details: at 10 µM, actives lie on both sides
[6] = biological target: Guanine nucleotide-binding protein G(o) subunit alpha (Homo sapiens) + Regulator of G-protein signaling 19 (Homo sapiens) (UniProt P09471+P49795); test: RGS19 interaction with Gαo, hit retest – biochemical, single point, multiplexed bead flow cytometry, confirmation (AID 1841; in the data active means response below about 50% or above about 160%; inactive means in between;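 further: 100% = no compound control and 0% = blank background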); details: bead-based flow cytometry RGS19-Galphao binding; at 10 µM; actives lie on both sides

O=C(NCC1(N2CCOCC2)CCCCC1)c1cc2ccccc2o1
inactive: inhibition [1] -1.6% | binding response (% of control) [2] 103% | response (percent of control binding) [3] 99% | response (% of control binding) [4] 106% | binding response (% of control) [5] 100% | response (percent of control binding) [6] 109%
